# From patent EP1903056A2, “HLA-A1, -A2 -A3, -A24, -B7, and -B44 tumor associated antigen peptides and compositions” (priority 2002, dated 2004)
# Legend:
# B*4501 = B*4501 (Homo sapiens, UniProt P01889, A329T/A65T/A93T/A95T/C349S/D138N/D201E/D98Y/E176V/E187L/E204Q/E69K/H137Y/K202T/L119W/N87E/Q56L/Q94N/R155S/R180D/S121R/S35A/S48T/V127L/V306I/V36M/W191S/Y140L/Y33H/Y91S); assay: B44 supertype peptide binding, B*4501
# B*4402 = B*4402 (Homo sapiens, UniProt P01889, A223V/A65T/A93T/A95T/D201E/D98Y/E176V/E187L/E204Q/E69K/G107R/H137Y/K202T/L105A/L119I/N104T/N87E/Q56L/Q94N/R106L/R155S/R180D/S101N/S121R/S35A/S48T/T118I/V36M/W191S/Y140D/Y91S); assay: B44 supertype peptide binding, B*4402; details: read-out: B* 4402
# [1] = tested on: B44 supertype (B*1801, B*4001, B*4002, B*4402, B*4403, B*4501); assay: B44 supertype cross-binding (degeneracy, number of alleles bound); set-up: species or system human; details: number of the six B44 alleles bound
# B*4002 (B61) = B*4002 (B61) (Homo sapiens, UniProt P01889, A65T/A93T/A95T/D138N/D201E/D98Y/E176V/E204Q/E69K/K202T/N87E/Q56L/Q94N/R180L/S48T/Y33H/Y91S); assay: B44 supertype peptide binding, B*4002; details: read-out: B* 4002
# B*4403 = B*4403 (Homo sapiens, UniProt P01889, A223V/A65T/A93T/A95T/D201E/D98Y/E176V/E187L/E204Q/E69K/G107R/H137Y/K202T/L105A/L119I/N104T/N87E/Q56L/Q94N/R106L/R155S/R180L/S101N/S121R/S35A/S48T/T118I/V36M/W191S/Y140D/Y91S); assay: B44 supertype peptide binding, B*4403; details: read-out: B* 4403
# B*4001(B60) = B*4001(B60) (Homo sapiens, UniProt P01889, A65T/A93T/A95T/D138N/D98Y/E176V/E69K/N87E/Q56L/Q94N/R180L/S121R/S35A/S48T/T167S/V36M/W171L/Y33H/Y91S); assay: B44 supertype peptide binding, B*4001; details: read-out: B* 4001
# B*1801 = B*1801 (Homo sapiens, UniProt P01889, A329T/A93T/A95T/C349S/D201E/D54G/D98Y/E176V/E187T/E204Q/E69T/K202T/Q94N/R155S/R180L/S121R/V306I/Y140S/Y195H/Y33H/Y91S); assay: B44 supertype peptide binding, B*1801
# [2] = Table 29: MAGE2-derived B44 peptides, read-out: B* 4501
# [3] = Table 29: MAGE2-derived B44 peptides
# [4] = Table 28: p53-derived B44 peptides
# [5] = Table 28: p53-derived B44 peptides, read-out: B* 4501
Compound,IC50 (B*4501; [2]),IC50 (B*4402; [3]),"Degeneracy [1, 3]",IC50 (B*4002 (B61); [3]),IC50 (B*4403; [3]),IC50 (B*4001(B60); [4]),"Degeneracy [1, 4]",IC50 (B*4002 (B61); [4]),IC50 (B*1801; [4]),IC50 (B*4403; [4]),IC50 (B*4501; [5]),IC50 (B*4402; [4]),IC50 (B*4501),IC50 (B*4001(B60); [3]),IC50 (B*1801; [3])
CSCC[C@H](NC(=O)[C@H](CCCNC(=N)N)NC(=O)[C@@H]1CCCN1C(=O)CNC(=O)[C@H](CCC(=O)O)NC(=O)[C@H](CCC(=O)O)NC(=O)[C@H](CCC(=O)O)NC(=O)[C@@H](N)CCC(N)=O)C(=O)N[C@@H](Cc1ccccc1)C(=O)O,2170 nM,237 nM,3,7750 nM,409 nM,–,–,–,–,–,–,–,–,–,–
CC(C)C[C@H](NC(=O)[C@H](CCC(=O)O)NC(=O)[C@H](CC(C)C)NC(=O)[C@H](C)NC(=O)[C@H](CCC(=O)O)NC(=O)[C@H](CC(N)=O)NC(=O)[C@H](CC(C)C)NC(=O)[C@H](CCC(=O)O)NC(=O)[C@@H](N)CCCNC(=N)N)C(=O)O [compound 608],–,–,–,–,–,15 nM,4,30 nM,3000 nM,1.1 nM,–,–,–,–,–
N=C(N)NCCC[C@H](NC(=O)[C@H](CCC(=O)O)NC(=O)[C@@H](N)Cc1c[nH]cn1)C(=O)N[C@@H](CS)C(=O)N[C@@H](CO)C(=O)N[C@@H](CC(=O)O)C(=O)N[C@@H](CO)C(=O)N[C@@H](CC(=O)O)C(=O)NCC(=O)O [compound 614],–,–,–,–,–,–,2,> 10000 nM,1120 nM,–,13400 nM,2030 nM,–,–,–
CC(C)C[C@H](NC(=O)[C@@H]1CCCN1C(=O)[C@@H]1CCCN1C(=O)[C@H](CCC(=O)O)NC(=O)[C@@H](N)C(C)C)C(=O)N[C@@H](CO)C(=O)N[C@@H](CCC(N)=O)C(=O)N[C@@H](CCC(=O)O)C(=O)N[C@H](C(=O)O)[C@@H](C)O [compound 622],–,–,–,–,–,17100 nM,1,> 10000 nM,–,236 nM,> 10000 nM,3190 nM,–,–,–
CC(C)C[C@H](NC(=O)[C@H](Cc1ccc(O)cc1)NC(=O)[C@H](CCC(=O)O)NC(=O)[C@@H](N)C(C)C)C(=O)N[C@@H](CC(=O)O)C(=O)N[C@@H](CC(=O)O)C(=O)N[C@@H](CCCNC(=N)N)C(=O)N[C@@H](CC(N)=O)C(=O)N[C@H](C(=O)O)[C@@H](C)O [compound 628],–,–,–,–,–,> 10000 nM,1,> 10000 nM,1440 nM,–,13500 nM,10100 nM,–,–,–
CC(C)C[C@H](NC(=O)[C@H](C)NC(=O)[C@H](CCC(=O)O)NC(=O)[C@@H](N)CC(N)=O)C(=O)N[C@@H](CCC(=O)O)C(=O)N[C@@H](CC(C)C)C(=O)N[C@@H](CCCCN)C(=O)N[C@@H](CC(=O)O)C(=O)N[C@@H](C)C(=O)O [compound 635],–,–,–,–,–,3890 nM,1,6640 nM,–,1580 nM,–,4270 nM,–,–,–
CC(C)[C@H](NC(=O)[C@H](CO)NC(=O)[C@@H]1CCCN1C(=O)[C@H](CC(=O)O)NC(=O)[C@H](CO)NC(=O)[C@H](CCC(N)=O)NC(=O)[C@@H]1CCCN1C(=O)[C@H](CCC(=O)O)NC(=O)[C@@H](N)CCC(=O)O)C(=O)O [compound 637],–,–,–,–,–,> 10000 nM,0,> 10000 nM,9450 nM,1510 nM,–,5970 nM,1620 nM,–,–
CSCC[C@H](NC(=O)[C@H](CO)NC(=O)[C@H](CC(C)C)NC(=O)[C@H](CCC(=O)O)NC(=O)[C@@H](N)CCC(=O)O)C(=O)N[C@@H](CC(C)C)C(=O)N[C@@H](CCC(=O)O)C(=O)N[C@H](C(=O)N[C@@H](Cc1ccccc1)C(=O)N[C@@H](CCC(=O)O)C(=O)NCC(=O)O)C(C)C [compound 663],163 nM,–,5,294 nM,–,–,–,–,–,–,–,–,–,> 10000 nM,1.5 nM
CC(C)C[C@H](NC(=O)[C@H](CC(C)C)NC(=O)[C@H](Cc1ccccc1)NC(=O)[C@H](Cc1c[nH]cn1)NC(=O)[C@@H](NC(=O)[C@H](CC(C)C)NC(=O)[C@H](CCC(=O)O)NC(=O)[C@@H](N)C(C)C)C(C)C)C(=O)O [compound 671],2430 nM,–,4,31 nM,1.2 nM,–,–,–,–,–,–,–,–,–,5 nM
CC[C@H](C)[C@H](N)C(=O)N[C@@H](CCC(=O)O)C(=O)NCC(=O)N[C@@H](CC(=O)O)C(=O)N[C@@H](CS)C(=O)N[C@@H](C)C(=O)N1CCC[C@H]1C(=O)N[C@@H](CCC(=O)O)C(=O)N[C@@H](CCC(=O)O)C(=O)N[C@@H](CCCCN)C(=O)N[C@H](C(=O)O)[C@@H](C)CC [compound 700],183 nM,2630 nM,2,> 10000 nM,486 nM,–,–,–,–,–,–,–,–,> 10000 nM,844 nM
CC[C@H](C)[C@H](NC(=O)[C@H](CCCCN)NC(=O)[C@H](CCC(=O)O)NC(=O)[C@@H](N)CCC(=O)O)C(=O)N[C@@H](Cc1c[nH]c2ccccc12)C(=O)N[C@@H](CCC(=O)O)C(=O)N[C@@H](CCC(=O)O)C(=O)N[C@@H](CC(C)C)C(=O)N[C@@H](CO)C(=O)N[C@@H](CCSC)C(=O)N[C@@H](CC(C)C)C(=O)O [compound 702],–,1860 nM,2,> 10000 nM,–,–,–,–,–,–,–,–,–,4980 nM,1640 nM
CC(C)C[C@H](N)C(=O)N[C@@H](CCC(=O)O)C(=O)N[C@H](C(=O)N[C@@H](Cc1ccccc1)C(=O)N[C@@H](CCC(=O)O)C(=O)NCC(=O)N[C@@H](CCCNC(=N)N)C(=O)N[C@@H](CCC(=O)O)C(=O)N[C@@H](CC(=O)O)C(=O)N[C@@H](CO)C(=O)N[C@H](C(=O)O)C(C)C)C(C)C [compound 703],> 10000 nM,> 10000 nM,2,–,–,–,–,–,–,–,–,–,–,2620 nM,639 nM
CC(C)[C@H](NC(=O)[C@H](CO)NC(=O)[C@H](CC(=O)O)NC(=O)[C@H](CCC(=O)O)NC(=O)[C@H](CCCNC(=N)N)NC(=O)CNC(=O)[C@H](CCC(=O)O)NC(=O)[C@@H](N)Cc1ccccc1)C(=O)N[C@@H](Cc1ccccc1)C(=O)N[C@@H](C)C(=O)O [compound 704],–,–,2,4780 nM,–,–,–,–,–,–,–,–,–,> 10000 nM,242 nM
CC(C)C[C@H](NC(=O)CNC(=O)[C@H](CCC(=O)O)NC(=O)[C@H](CCC(=O)O)NC(=O)[C@@H]1CCCN1)C(=O)N[C@@H](CCC(=O)O)C(=O)N[C@@H](C)C(=O)N[C@@H](CCCNC(=N)N)C(=O)NCC(=O)O [compound 705],1970 nM,> 10000 nM,1,> 10000 nM,2090 nM,–,–,–,–,–,–,–,–,292 nM,–
CC[C@H](C)[C@H](NC(=O)[C@H](CCCCN)NC(=O)[C@H](CCC(=O)O)NC(=O)[C@H](CCC(=O)O)NC(=O)[C@@H]1CCCN1)C(=O)N[C@@H](Cc1c[nH]c2ccccc12)C(=O)N[C@@H](CCC(=O)O)C(=O)N[C@@H](CCC(=O)O)C(=O)N[C@@H](CC(C)C)C(=O)O [compound 710],17300 nM,2890 nM,1,3910 nM,–,–,–,–,–,–,–,–,–,19400 nM,577 nM
CC[C@H](C)[C@H](NC(=O)[C@H](Cc1c[nH]cn1)NC(=O)[C@@H]1CCCN1C(=O)[C@H](CCC(=O)O)NC(=O)CN)C(=O)N[C@@H](CO)C(=O)N[C@@H](Cc1ccc(O)cc1)C(=O)O [compound 711],> 10000 nM,> 10000 nM,1,6720 nM,272 nM,–,–,–,–,–,–,–,–,–,8830 nM
CC(C)C[C@H](NC(=O)CNC(=O)[C@H](CC(C)C)NC(=O)[C@H](C)NC(=O)[C@H](CCC(=O)O)NC(=O)CNC(=O)[C@H](CCCNC(=N)N)NC(=O)[C@H](C)NC(=O)[C@H](CCC(=O)O)NC(=O)[C@H](CC(C)C)NC(=O)CNC(=O)[C@H](CCC(=O)O)NC(=O)[C@@H](N)CCC(=O)O)C(=O)O [compound 713],5860 nM,2510 nM,0,18500 nM,4470 nM,–,–,–,–,–,–,–,–,3690 nM,–

# Where two headings read alike, the source gives them in different places.
